Experimental data taken from US12435084B2, “Indazole derivatives as inhibitors of SARM1” (Disarm Therapeutics, Inc., priority 2020, dated 2025).

Amino acid sequences for entries named in this document (tags omitted). Chains listed by the source or under a name are the forms on record and can include a tag or linker. Residues count along the entry.
UniProt Q6SZW1, 28-724 with tags or gaps limits assumed: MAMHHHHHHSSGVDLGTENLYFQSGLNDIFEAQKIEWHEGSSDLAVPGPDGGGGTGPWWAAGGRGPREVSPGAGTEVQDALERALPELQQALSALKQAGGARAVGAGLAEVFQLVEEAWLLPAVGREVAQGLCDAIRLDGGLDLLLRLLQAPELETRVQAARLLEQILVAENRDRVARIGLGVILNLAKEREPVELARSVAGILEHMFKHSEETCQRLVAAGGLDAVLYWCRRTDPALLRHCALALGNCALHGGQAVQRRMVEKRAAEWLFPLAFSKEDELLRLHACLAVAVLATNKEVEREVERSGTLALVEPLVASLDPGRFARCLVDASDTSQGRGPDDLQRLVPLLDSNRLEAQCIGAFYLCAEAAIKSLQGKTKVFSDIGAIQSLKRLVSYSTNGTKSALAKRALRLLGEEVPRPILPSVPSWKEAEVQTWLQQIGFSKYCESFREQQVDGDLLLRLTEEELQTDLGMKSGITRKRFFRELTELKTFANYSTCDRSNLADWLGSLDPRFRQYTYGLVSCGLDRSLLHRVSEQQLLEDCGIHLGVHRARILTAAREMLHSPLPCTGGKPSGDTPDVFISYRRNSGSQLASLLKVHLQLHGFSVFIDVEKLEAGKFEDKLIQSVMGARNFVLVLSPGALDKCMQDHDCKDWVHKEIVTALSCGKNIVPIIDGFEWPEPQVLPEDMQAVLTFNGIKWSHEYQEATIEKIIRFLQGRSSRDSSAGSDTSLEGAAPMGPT

Target: SARM1 (Homo sapiens, UniProt Q6SZW1)
Experiment: ARM-SAM-TIR SARM1 IC50 assay (NADase activity, NAD+ cleavage, RapidFire mass spectrometry)
Settings: read-out: SARM1 IC50; ARM-SAM-TIR lysate 5 μg/mL, 2 h pre-incubation with compound at room temperature, 5 μM NAD+, 2 hr incubation

Compound: O=C(NCc1ccc(Cl)nc1)c1cccc2c(-c3ccncc3)c[nH]c12
- IC50: < 100 nM
